{
  "sequences": {"note": "The chains behind the UniProt entries cited, without tags or fusion partners.", "UniProt P35372, whole entry, looked up": "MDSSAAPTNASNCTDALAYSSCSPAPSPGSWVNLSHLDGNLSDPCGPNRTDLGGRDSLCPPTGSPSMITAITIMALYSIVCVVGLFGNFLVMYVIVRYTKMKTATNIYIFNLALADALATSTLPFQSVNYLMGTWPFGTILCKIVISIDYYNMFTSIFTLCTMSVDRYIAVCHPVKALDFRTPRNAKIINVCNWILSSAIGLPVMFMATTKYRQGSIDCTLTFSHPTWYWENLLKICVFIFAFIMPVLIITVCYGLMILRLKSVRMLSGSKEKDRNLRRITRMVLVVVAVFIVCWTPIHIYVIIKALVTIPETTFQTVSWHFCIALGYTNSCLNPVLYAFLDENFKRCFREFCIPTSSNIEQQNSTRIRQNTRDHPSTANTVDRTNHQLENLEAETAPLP", "UniProt P41143, whole entry, looked up": "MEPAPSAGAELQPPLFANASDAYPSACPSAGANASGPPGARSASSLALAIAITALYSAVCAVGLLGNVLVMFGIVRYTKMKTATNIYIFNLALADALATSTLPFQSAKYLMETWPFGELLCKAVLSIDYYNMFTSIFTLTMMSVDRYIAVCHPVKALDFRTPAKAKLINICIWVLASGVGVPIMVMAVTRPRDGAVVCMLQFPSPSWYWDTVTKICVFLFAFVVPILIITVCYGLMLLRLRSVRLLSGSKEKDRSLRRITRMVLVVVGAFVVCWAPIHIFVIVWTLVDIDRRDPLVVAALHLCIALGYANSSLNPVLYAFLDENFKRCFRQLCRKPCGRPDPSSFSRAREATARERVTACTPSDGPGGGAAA"},
  "source": "PubChem BioAssay AID504326",
  "about": "(The Scripps Research Institute Molecular Screening Center, 2011)",
  "note": "Only a part is listed here, and it is no random draw. Active and inactive are the calls of the source. No stated cut-off is given here; in the data, active means activation above about 18%; inactive means the rest.",
  "data": [
    {"target": "Mu-type opioid receptor (Homo sapiens) + Delta-type opioid receptor (Homo sapiens) (UniProt P35372+P41143)", "test": "agonists of OPRM1-OPRD1 heterodimerization, primary screen, cell-based, luminescence (AID 504326);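 further: 0% = vehicle-treated cells and 100% = reference agonist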", "conditions": "cells, at 9.3 µM, hits give high values", "values": [
      {"smiles": "Cc1ccc(OCC(O)Cn2c(=N)n(CCN3CCOCC3)c3ccccc32)cc1", "note": "(centres undefined)", "activation": "inactive: -0.63%"},
      {"smiles": "COC(=O)c1ccc(NC(=O)Cn2c(-c3nonc3N)nc3ccccc32)cc1", "activation": "inactive: -2.58%"},
      {"smiles": "N=c1n(CCN2CCCCC2)c2ccccc2n1CC(O)COc1ccccc1", "note": "(centres undefined)", "activation": "inactive: -1.56%"},
      {"smiles": "O=[N+]([O-])c1cc([N+](=O)[O-])c(CCNc2ccccc2)c([N+](=O)[O-])c1", "activation": "inactive: 6.52%"},
      {"smiles": "CCc1nc2c(n1)c1c(non1O)c1c2no[n+]1[O-]", "activation": "inactive: 7.24%"},
      {"smiles": "O=C(NC1CCCCC1)N1CCC(n2c(=O)[nH]c3ccccc32)CC1", "activation": "inactive: 2.71%"},
      {"smiles": "Cn1c(=O)c2c(nc(Sc3nc4ccccc4n3CC(=O)N3CCCCC3)n2C)n(C)c1=O", "activation": "inactive: 0.15%"},
      {"smiles": "CCC(C)[C@H](NC(=O)N1CCn2c1nc1ccccc12)C(=O)NCCc1ccccc1", "note": "(some centres undefined)", "activation": "inactive: 0.87%"},
      {"smiles": "C[C@H](O)[C@@H]1C(=O)N2CCc3ccc(-c4ccccc4)cc3[C@@H]2C[C@@H]1N(C)C(=O)Nc1cc(Cl)cc(Cl)c1", "activation": "inactive: 1.21%"},
      {"smiles": "CCC(=O)Nc1cccc(C(=O)/C=C/c2cccs2)c1", "activation": "inactive: 1.88%"},
      {"smiles": "COc1ccc(C2=NCC(CBr)S2)cc1", "note": "(centres undefined)", "activation": "inactive: -0.65%"},
      {"smiles": "CCN(CC)CCn1c(=N)n(CCO)c2ccccc21", "activation": "inactive: -2.16%"},
      {"smiles": "Cn1c(=O)c2c(ncn2CC(=O)N/N=C/c2ccco2)n(C)c1=O", "activation": "inactive: -1.39%"},
      {"smiles": "CC(=O)N1CCc2cc(S(=O)(=O)NC(CC(C)C)C(=O)N3CCn4c3nc3ccccc34)ccc21", "note": "(centres undefined)", "activation": "inactive: 0.19%"},
      {"smiles": "CSc1nc(N)nc2c1ncn2CC(=O)NCCCc1ccccc1", "activation": "inactive: -2.22%"},
      {"smiles": "CCOC(=O)CSc1nc2ccccc2n1CC(=O)N1CCN(c2ccccc2)CC1", "activation": "inactive: -3.11%"},
      {"smiles": "c1ccc(CN2CCC3(CC2)Nc2ccccc2CO3)cc1", "activation": "inactive: 1.59%"},
      {"smiles": "Cn1c(=O)c2c(ncn2CC(=O)N2CCN(c3ccccc3F)CC2)n(C)c1=O", "activation": "inactive: -2.6%"},
      {"smiles": "N#CCC(=O)N/N=C\\c1cc(Br)ccc1OC/C=C/c1ccccc1", "activation": "inactive: -0.3%"},
      {"smiles": "Cc1ccc(SCc2nc3ccccc3n2CC(=O)Nc2ccccc2)cc1", "activation": "inactive: 0.96%"},
      {"smiles": "Cc1ccc2c(c1)C1CN(C)CCC1N2S(=O)(=O)c1ccc(Oc2ccc([N+](=O)[O-])cc2)cc1", "note": "(centres undefined)", "activation": "inactive: 1.95%"},
      {"smiles": "COc1cc(NC(=O)Cn2cnc3c(SC)nc(N)nc32)cc(OC)c1OC", "activation": "inactive: 1.19%"},
      {"smiles": "Cc1cc(NC(=O)CSc2nc3ccccc3n2CC(=O)N2CC(C)CC(C)C2)no1", "note": "(centres undefined)", "activation": "inactive: -0.57%"},
      {"smiles": "Cn1c(=O)c2c(nc(Cl)n2CC(=O)NC2(C#N)CCCCC2)n(C)c1=O", "activation": "inactive: -1.42%"},
      {"smiles": "O=C(Cn1c(NCCO)nc2ccccc21)N1CCN(Cc2ccccc2)CC1", "activation": "inactive: -1.31%"},
      {"smiles": "Cn1c(=O)c2c(ncn2CC(=O)Nc2ccccc2)n(C)c1=O", "activation": "inactive: 0.08%"},
      {"smiles": "Nc1ccccc1CNc1nc(NCCO)nc2c1ncn2CCN1CCOCC1", "activation": "inactive: 1.46%"},
      {"smiles": "NC(=O)CC(NC(=O)c1ccccc1)c1ccc(NC2CCN(Cc3ccccc3)CC2)c([N+](=O)[O-])c1", "note": "(centres undefined)", "activation": "inactive: -1.26%"},
      {"smiles": "N=c1n(CCN2CCCCC2)c2ccccc2n1CC(O)c1ccco1", "note": "(centres undefined)", "activation": "inactive: -3.69%"},
      {"smiles": "CSc1nc(N)nc2c1ncn2CC(=O)N1CCN(c2ccccn2)CC1", "activation": "inactive: -1.91%"},
      {"smiles": "O=S(=O)(Cc1ccccc1)N1CCn2c(nc3ccccc32)C1", "activation": "inactive: -1.3%"},
      {"smiles": "CCN(CC)S(=O)(=O)c1ccc(NC2CCN(Cc3ccccc3)CC2)nc1", "activation": "inactive: 1.22%"},
      {"smiles": "CC1CCCN(Cc2nc3c(c(=O)n(C)c(=O)n3C)n2CC(N)=O)C1", "note": "(centres undefined)", "activation": "inactive: -4.5%"},
      {"smiles": "CN1CCN(c2nc3c(c(=O)n(C)c(=O)n3C)n2CC(N)=O)CC1", "activation": "inactive: 1.65%"},
      {"smiles": "COc1ccc(Cc2nc3ccccc3n2CC(=O)N/N=C/c2ccc(O)cc2)cc1OC", "activation": "inactive: -1.03%"},
      {"smiles": "COC(=O)C1(C)COP(=O)(Nc2ccccc2)OC1", "note": "(centres undefined)", "activation": "inactive: -2.64%"},
      {"smiles": "O=[N+]([O-])c1cccc(NC2=NCC(CBr)S2)c1", "note": "(centres undefined)", "activation": "inactive: -3.81%"},
      {"smiles": "CCOC(=O)N1CCN(c2c(NC3CCN(Cc4ccccc4)CC3)c(=O)c2=O)CC1", "activation": "inactive: -0.07%"},
      {"smiles": "CC(C)Sc1nc2ccccc2n1CC(N)=O", "activation": "inactive: -2.6%"},
      {"smiles": "O=C(Cn1cnc2ccccc21)N1CCN(S(=O)(=O)c2ccccc2)CC1", "activation": "inactive: -1.77%"},
      {"smiles": "CN(C)C1(c2nnnn2-c2ccc(Cl)cc2)CCCCC1", "activation": "inactive: 1.59%"},
      {"smiles": "Cc1nn(CC(=O)Nc2ccc3c(c2)nc2n3CCN(C3CCCCC3)C2)c(=O)c2ccccc12", "activation": "inactive: -1.23%"},
      {"smiles": "Cc1noc(C)c1S(=O)(=O)N(CC(=O)N1CCn2c1nc1ccccc12)c1ccc(C(C)C)cc1", "activation": "inactive: -0.09%"},
      {"smiles": "O=[N+]([O-])c1ccc(NC2CCN(Cc3ccccc3)CC2)c2ccncc12", "activation": "inactive: 3.08%"},
      {"smiles": "O=C(c1ccccc1Br)N1CCn2c1nc1ccccc12", "activation": "inactive: -2.37%"},
      {"smiles": "Cc1cccc(NC(=O)Cn2c(/C=C/c3ccccc3)nc3ccccc32)c1", "activation": "inactive: 0.37%"},
      {"smiles": "O=C(O)CNc1ccc([As](=O)(O)O)cc1", "activation": "inactive: -2.29%"},
      {"smiles": "COC(=O)c1ccc(N2C(=O)CC(N3CCC(n4c(=O)[nH]c5ccccc54)CC3)C2=O)cc1", "note": "(centres undefined)", "activation": "inactive: -1.01%"},
      {"smiles": "CCc1nc2ccccc2n1CC(=O)NC1CCS(=O)(=O)C1", "note": "(centres undefined)", "activation": "inactive: -1.97%"},
      {"smiles": "COc1cccc(NC(=O)Cn2c(-c3cncs3)nc3ccccc32)c1", "activation": "inactive: -2.12%"},
      {"smiles": "COc1cccc(CNC(=O)CCNC(=O)N2CCn3c2nc2ccccc23)c1", "activation": "inactive: -2.2%"},
      {"smiles": "O=C1CCC(=O)N1c1ccc(NC2CCN(Cc3ccccc3)CC2)c([N+](=O)[O-])c1", "activation": "inactive: -2.85%"},
      {"smiles": "CSCC[C@H](NC(=O)N1CCn2c1nc1ccccc12)C(=O)N[C@@H](C(=O)O)c1ccccc1", "activation": "inactive: -1.69%"},
      {"smiles": "CC(C)(C)C(=O)NC(Sc1ccncn1)C(Cl)(Cl)Cl", "note": "(centres undefined)", "activation": "inactive: 0.29%"},
      {"smiles": "COc1ccc(CN(C)C(=O)Cn2cnc3c(NCc4ccccc4)ncnc32)cc1OC", "activation": "inactive: -2.42%"},
      {"smiles": "CCN(Cc1ccccc1)C(=O)Cn1c(C(C)O)nc2ccccc21", "note": "(centres undefined)", "activation": "inactive: -2.56%"},
      {"smiles": "Cn1c(=O)c2c(ncn2CC(=O)NC(C)(C)C)n(C)c1=O", "activation": "inactive: -1.34%"},
      {"smiles": "CCCCc1nc2ccccc2n1CC(=O)NN", "activation": "inactive: -1.14%"},
      {"smiles": "c1ccc(CN2CCC(Nc3ncnc4sccc34)CC2)cc1", "activation": "inactive: -3.02%"},
      {"smiles": "O=[N+]([O-])c1ccc2c(c1)nc1n2CCN(CC2CCCO2)C1", "note": "(centres undefined)", "activation": "inactive: -1.13%"},
      {"smiles": "CN(C)C(=O)Cn1c(=O)n(S(=O)(=O)c2ccccc2)c2ccccc21", "activation": "inactive: -0.05%"},
      {"smiles": "C/C(=N\\NC(=O)Cn1cnc2ccccc21)c1cccs1", "activation": "inactive: -1.39%"},
      {"smiles": "Cn1c(=O)c2c(ncn2CC(=O)Nc2ccc(N3CCOCC3)cc2)n(C)c1=O", "activation": "inactive: -2.56%"},
      {"smiles": "CSc1nc2ccccc2n1CC(=O)N1CCCCC1", "activation": "inactive: -2.48%"},
      {"smiles": "CC(C)OC(=O)c1ccc(NC(=O)Cn2c(-c3nonc3N)nc3ccccc32)cc1", "activation": "inactive: 0.97%"},
      {"smiles": "C/C(=N\\NC(=O)Cn1c(-c2ccccn2)nc2ccccc21)c1ccccc1", "activation": "inactive: -6.32%"},
      {"smiles": "Cc1ccc2c(c1)C1CN(C)CCC1N2C(=O)Nc1cccc(C(F)(F)F)c1", "note": "(centres undefined)", "activation": "inactive: 6.39%"},
      {"smiles": "CC(C)(C)NC(=O)Cn1c(SCC(=O)N2CCCCCC2)nc2ccccc21", "activation": "inactive: -2%"},
      {"smiles": "CSCC[C@H](NC(=O)N1CCn2c1nc1ccccc12)C(=O)NCc1ccco1", "activation": "inactive: 0.98%"},
      {"smiles": "O=[N+]([O-])c1ncn(CCn2ncnc2[N+](=O)[O-])n1", "activation": "inactive: 1.09%"},
      {"smiles": "CCCn1c(=O)[nH]c(=O)c2c1nc(-c1ccc(OC(F)F)cc1)n2CCN1CCOCC1", "activation": "inactive: -1.21%"},
      {"smiles": "Cn1c(=O)c2ncn(CC(=O)Nc3nc(-c4ccc(Cl)cc4)cs3)c2n(C)c1=O", "activation": "inactive: -0.59%"},
      {"smiles": "CCOc1ccc(NC(=O)CN(C)C(=O)Cn2cnc3c2c(=O)n(C)c(=O)n3C)cc1OCC", "activation": "inactive: -1.13%"},
      {"smiles": "CC(C)C[C@H](NC(=O)N1CCn2c1nc1ccccc12)C(=O)NCC1CCCO1", "note": "(some centres undefined)", "activation": "inactive: -2.68%"},
      {"smiles": "Cn1c(=O)[nH]c(=O)c2c1nc(SCc1ccccc1Cl)n2CC(N)=O", "activation": "inactive: -3.34%"},
      {"smiles": "COc1ccc(CNC(=O)Cn2cnc3c(=O)n(C)c(=O)n(C)c32)cc1", "activation": "inactive: -1.56%"},
      {"smiles": "Cc1ccc2c(c1)[C@@H]1CN(C)CC[C@@H]1N2S(=O)(=O)c1ccc(F)cc1", "activation": "inactive: -0.85%"},
      {"smiles": "COc1ccccc1NS(=O)(=O)c1cc(NC(=O)Cn2cnc3c2c(=O)n(C)c(=O)n3C)ccc1C", "activation": "inactive: 0.72%"},
      {"smiles": "O=C(c1ccco1)N1CCn2c1nc1ccccc12", "activation": "inactive: -5.04%"},
      {"smiles": "COc1ccc(Cc2nc3ccccc3n2CC(=O)N/N=C/c2ccccc2)cc1OC", "activation": "inactive: -0.26%"},
      {"smiles": "O=C(Nc1cc([As](=O)(O)O)ccc1O)c1ccccc1", "activation": "inactive: -1.4%"},
      {"smiles": "Cn1c(=O)n(CC(=O)Nc2ccccc2)c2ccccc21", "activation": "inactive: -1.58%"},
      {"smiles": "Cc1cc(C)c(CN2CCN(C(=O)Cn3cnc4c(OCc5ccccc5)ncnc43)CC2)c(C)c1", "activation": "inactive: 6.2%"},
      {"smiles": "C=CCc1cccc(CNc2nc3ccccc3n2CCN2CCOCC2)c1O", "activation": "inactive: -2.76%"},
      {"smiles": "COc1ccc(CNc2nc3ccccc3n2CCN2CCCCC2)c(OC)c1", "activation": "inactive: -2.57%"},
      {"smiles": "c1ccc(CN2CCC3(CC2)Nc2ccccc2S3)cc1", "activation": "inactive: 4.13%"},
      {"smiles": "COc1ccccc1CNc1nc2ccccc2n1CCN1CCCCC1", "activation": "inactive: 0.48%"},
      {"smiles": "COc1ccc(N2CCn3c2nc2c3c(=O)n(CCCc3ccccc3)c(=O)n2C)c(OC)c1", "activation": "inactive: 1.92%"},
      {"smiles": "CCSc1nnc(NC(=O)Cn2cnc3c2c(=O)n(C)c(=O)n3C)s1", "activation": "inactive: -2.99%"}
    ]}
  ]
}
